The list shows a part of the results, in another mix than the full data. Records with an inconclusive call do not appear. Some salts and complexes are drawn in separate pieces, as the source files them; their charges need not balance. Active and inactive are the calls of the source. Calls come from the whole dose curve; as a rule, active = well fitted activation curve with a large enough effect; inconclusive = small, poorly fitted or top-dose-only effect; inactive = no such curve, though single readings can be large or run the other way.

This assay in a line: A quantitative high throughput screen for small molecules that induce DNA re-replication in MCF 10a normal breast cells. Note: % of control where 0% means no effect; nearly all actives have a fitted effect of over 50% in size. To be noted: MCF 10A DNA re-replication, Hoechst nuclear intensity, 48 h; at 46.1 µM (top of the series) unless noted.
`c1ccc(CN2CCC(Nc3ccccc3)CC2)cc1`: the activity, positive = re-replication was inactive: 5.02%. On to `CCCN1CCC(Nc2cc(OC)cc(OC)c2)CC1`, for which the activity, positive = re-replication was inactive: -3.3%. In the case of `CN(C)C1(CNC(=O)c2cccc(C#N)c2)CCCCC1` it was inactive: -14.1%; in that of `CSc1ccc(C(=O)NCC2(N3CCOCC3)CCCCC2)cc1`, inactive: 3.76%; in that of `O=C(NCC1(N2CCCCC2)CCCCC1)c1cccc([N+](=O)[O-])c1`, inactive: -11.5%. In the case of `CCN1CCC(Nc2ccc(Cl)cc2)CC1` it was inactive: 0.067%; in that of `N#CC1(Nc2ccccc2)CCN(CCc2ccccc2)CC1`, inactive: -2.32%. On to `O=C(NCC1(N2CCCCC2)CCCCC1)c1ccc(OC(F)F)cc1`, for which the activity, positive = re-replication was inactive: -0.984%. For `CN1CCN(CCOC(=O)C(O)(c2ccccc2)c2ccccc2)CC1`, the activity, positive = re-replication was inactive: -1.53%. In the case of `COc1ccc(NC2CCN(C(=O)OC(C)(C)C)CC2)cc1` it was inactive: 0.51%; in that of `COc1cc(C(=O)NCC2(N3CCCCC3)CCCCC2)ccc1OC(F)F`, inactive: -9.52%; in that of `O=C(NCC1(N2CCOCC2)CCCCC1)c1cc(=O)[nH]c2ccccc12`, inactive: -1.39%.

For `O=C(NCC1(N2CCCCC2)CCCCC1)c1cccc(C(F)(F)F)c1`, the activity, positive = re-replication is inactive: 6.3%.

As to `COc1cc(OC)c(C(=O)NCC2(N(C)C)CCCCC2)cc1OC`, the activity, positive = re-replication was inactive: 16.9%.

On to `O=C(NCC1(N2CCOCC2)CCCCC1)c1cc(F)c(F)cc1Cl`, for which the activity, positive = re-replication was inactive: -2.56%. In the case of `COc1ccc(CN(CCCl)CCCl)cc1Cl` it was inactive: 1.03%; in that of `O=[N+]([O-])c1cc([N+](=O)[O-])c(OC2CCCCC2O)c([N+](=O)[O-])c1` (stereo not given), inactive: 0.861%. In the case of `CN(C)c1cccc(C(=O)NCC2(N3CCCCC3)CCCCC2)c1` it was inactive: -5.37%; in that of `CC(C)c1ccc(NC2CCN(C(=O)OC(C)(C)C)CC2)cc1`, inactive: 10%; in that of `CCCOc1ccc(C(=O)NCC2(N(C)C)CCCCC2)cc1OC`, inactive: 17.5%. The same measure for `COc1ccc2c(c1O)-c1c(O)c(OC)cc3c1[C@H](C2)[N+](C)(C)CC3.O=[N+]([O-])c1cc([N+](=O)[O-])c([O-])c([N+](=O)[O-])c1[O-]`: inactive: -9.89%; for `CN1CCC(Nc2cccc(F)c2)CC1`: inactive: 1.01%; for `O=C(OC1CN2CCC1CC2)c1ccc([N+](=O)[O-])cc1` (stereo not given): inactive: 22.2%. Take `CSc1ccccc1C(=O)NCC1(N2CCCCC2)CCCCC1`: the activity, positive = re-replication is inactive: 12.5%. The same measure for `Cc1cccc(NC2(C#N)CCN(Cc3ccccc3)CC2)c1`: inactive: 0.944%. The same measure for `O=C(NCC1(N2CCCCC2)CCCCC1)c1ccc(=O)[nH]c1`: inactive: -2.63%; for `O=C(NCC1(N2CCCCC2)CCCCC1)c1cccs1`: inactive: 8.58%.

`COc1ccc(C(=O)NCC2(N3CCCCC3)CCCCC2)c(OC)c1OC`: the activity, positive = re-replication is inactive: 0.0342%. The same measure for `CC(C)(C)OC(=O)N1CCC(N(C(=O)c2ccccc2)c2ccc(F)cc2)CC1`: inactive: -2.9%; for `CCOC(=O)N1CCC(Nc2ccc(OC)cc2)CC1`: inactive: 0.936%. In the case of `O=C(OC1CN2CCC1CC2)C1c2ccccc2Oc2ccccc21` (stereo not given) it was inactive: 2.43%. The same measure for `N#CC1(Nc2ccccc2)CCN(Cc2ccccc2)CC1`: inactive: -1.05%; for `O=C(NCC1(N2CCCCC2)CCCCC1)c1ccc(Cl)s1`: inactive: -2.15%.

Regarding `O=C1C(O)=C([N+](=O)[O-])C(=O)C(O)=C1[N+](=O)[O-]`, the activity, positive = re-replication is inactive: -20.1%.

As to `COc1ccc(Cl)cc1C(=O)NCC1(N2CCOCC2)CCCCC1`, the activity, positive = re-replication is inactive: 13%. The same measure for `O=C(NCC1(N2CCOCC2)CCCCC1)c1cc2ccccc2o1`: inactive: -0.39%; for `O=C(NCC1(N2CCCCC2)CCCCC1)c1ccc(Cl)nc1`: inactive: -7.69%. Turning to `O=C(NCC1(N2CCCCC2)CCCCC1)c1ccc(F)cc1`, the activity, positive = re-replication is inactive: 6.84%. The same measure for `O=P1(N(CCCl)CCCl)SCCCS1`: inactive: -1.39%. The same measure for `CCCCOc1ccc(C(=O)NCC2(N3CCOCC3)CCCCC2)cc1`: inactive: 12.9%; for `CCOC(=O)N1CCC(Nc2ccc(F)cc2)CC1`: inactive: -3.02%; for `CCOc1ccc(C)cc1CN(CCCl)CCCl`: inactive: 1.23%. As to `O=C1CCN(Cc2ccccc2)CC1`, the activity, positive = re-replication was inactive: 2.34%.

With `COc1cc(C(=O)NCC2(N(C)C)CCCCC2)ccc1OC(F)F`, the activity, positive = re-replication was inactive: 14%. In the case of `CCOC(=O)N1CCC(Nc2cccc(C)c2)CC1` it was inactive: 2.76%.

These data come from PubChem BioAssay AID624296 (National Center for Advancing Translational Sciences (NCATS), 2012).
